{
  "source": "patent US20080300263A1",
  "about": "“Pyrazolo [1,5-a] pyrimidine compounds and pharmaceutical compositions containing them” (EiRx Therapeutics plc, priority 2005, published 2008)",
  "origin": "cited, not measured here",
  "test_system": "tumors that express EGFR",
  "details": "patients with EGFR-expressing tumors no longer responding to irinotecan; cited from earlier work",
  "data": [
    {"substance": "Erbitux: genetically engineered version of a mouse antibody with human and mouse components, targeting epidermal growth factor receptor (EGFR)", "values": [
      {"measurement": "delay of tumor growth", "result": 1.5, "unit": "months"},
      {"measurement": "tumor response rate (patients whose tumors shrank)", "result": 10.8, "unit": "%"}
    ]}
  ]
}
